Values quoted from earlier work as cited in patent publication US6136784A, “Amylin agonist pharmaceutical compositions containing insulin” (Amylin Pharmaceuticals, Inc., priority 1998, dated 2000).

Details: cited from earlier work

Substance: regular insulin
- Time to absorption following subcutaneous injection: 15 to 60 min
- Duration of action (lasts for) (subcutaneous injection): 5 to 9 h
